For part of these data: What follows is the remainder of the data, with few or none of the strong results. This is a selection; strong and weak results do not stand in their true shares.
Columns and labels:
[1] = biological target: T1, Serine/threonine-protein kinase TAO2 (Homo sapiens) (UniProt Q9UL54); conditions: at 1 µM
T1 sequence (whole entry): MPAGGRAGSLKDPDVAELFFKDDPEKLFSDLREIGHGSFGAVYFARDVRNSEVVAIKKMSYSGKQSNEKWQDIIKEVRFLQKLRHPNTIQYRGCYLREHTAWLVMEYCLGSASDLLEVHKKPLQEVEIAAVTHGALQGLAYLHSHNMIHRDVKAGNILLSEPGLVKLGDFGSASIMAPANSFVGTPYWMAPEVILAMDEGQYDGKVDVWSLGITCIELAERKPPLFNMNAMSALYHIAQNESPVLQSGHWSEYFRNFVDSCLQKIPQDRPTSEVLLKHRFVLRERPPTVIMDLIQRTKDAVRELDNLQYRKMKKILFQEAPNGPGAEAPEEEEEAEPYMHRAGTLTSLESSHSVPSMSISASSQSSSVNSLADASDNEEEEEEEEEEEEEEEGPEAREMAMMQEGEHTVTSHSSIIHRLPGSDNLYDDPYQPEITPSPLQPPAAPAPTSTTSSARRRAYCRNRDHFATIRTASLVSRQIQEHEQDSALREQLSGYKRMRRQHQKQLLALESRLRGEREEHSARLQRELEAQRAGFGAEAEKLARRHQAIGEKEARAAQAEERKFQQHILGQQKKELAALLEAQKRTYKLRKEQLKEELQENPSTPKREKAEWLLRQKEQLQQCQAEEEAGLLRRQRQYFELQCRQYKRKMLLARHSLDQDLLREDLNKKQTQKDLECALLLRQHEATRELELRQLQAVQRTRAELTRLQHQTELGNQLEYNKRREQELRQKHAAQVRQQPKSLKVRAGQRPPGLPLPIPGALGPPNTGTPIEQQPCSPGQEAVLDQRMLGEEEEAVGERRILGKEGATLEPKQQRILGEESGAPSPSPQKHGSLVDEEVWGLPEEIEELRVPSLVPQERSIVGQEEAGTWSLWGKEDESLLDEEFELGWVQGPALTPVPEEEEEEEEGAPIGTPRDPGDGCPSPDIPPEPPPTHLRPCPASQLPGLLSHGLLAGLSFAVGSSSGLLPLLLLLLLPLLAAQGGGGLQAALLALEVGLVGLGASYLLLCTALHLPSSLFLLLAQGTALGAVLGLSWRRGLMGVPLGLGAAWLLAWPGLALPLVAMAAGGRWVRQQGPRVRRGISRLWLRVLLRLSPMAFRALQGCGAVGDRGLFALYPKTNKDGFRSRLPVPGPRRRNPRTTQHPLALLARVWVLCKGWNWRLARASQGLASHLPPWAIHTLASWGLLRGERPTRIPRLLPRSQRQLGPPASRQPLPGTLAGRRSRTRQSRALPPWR

The chains behind the UniProt entries cited, without tags or fusion partners. Where a name states a change or a piece, a line headed by the entry shows the natural chain unless it says otherwise.
UniProt O14920: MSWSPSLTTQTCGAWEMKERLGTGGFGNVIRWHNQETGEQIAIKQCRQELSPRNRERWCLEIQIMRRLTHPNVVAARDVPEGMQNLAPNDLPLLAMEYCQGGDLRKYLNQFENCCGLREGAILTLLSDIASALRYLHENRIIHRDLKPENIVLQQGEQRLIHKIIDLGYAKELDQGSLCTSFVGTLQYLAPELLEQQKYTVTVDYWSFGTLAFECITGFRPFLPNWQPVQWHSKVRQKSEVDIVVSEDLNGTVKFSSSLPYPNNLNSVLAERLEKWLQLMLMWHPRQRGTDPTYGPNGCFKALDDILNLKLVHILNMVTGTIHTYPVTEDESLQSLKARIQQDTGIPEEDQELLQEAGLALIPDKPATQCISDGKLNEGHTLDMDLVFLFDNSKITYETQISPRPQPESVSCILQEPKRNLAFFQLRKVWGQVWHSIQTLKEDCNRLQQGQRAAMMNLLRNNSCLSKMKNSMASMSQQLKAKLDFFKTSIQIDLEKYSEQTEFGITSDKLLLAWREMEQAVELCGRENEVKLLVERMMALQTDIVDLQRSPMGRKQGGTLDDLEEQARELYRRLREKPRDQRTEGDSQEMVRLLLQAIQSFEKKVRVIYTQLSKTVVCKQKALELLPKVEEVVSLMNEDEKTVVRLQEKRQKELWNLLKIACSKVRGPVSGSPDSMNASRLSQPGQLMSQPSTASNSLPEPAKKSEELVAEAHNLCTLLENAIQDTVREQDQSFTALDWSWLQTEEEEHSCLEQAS
UniProt P53667: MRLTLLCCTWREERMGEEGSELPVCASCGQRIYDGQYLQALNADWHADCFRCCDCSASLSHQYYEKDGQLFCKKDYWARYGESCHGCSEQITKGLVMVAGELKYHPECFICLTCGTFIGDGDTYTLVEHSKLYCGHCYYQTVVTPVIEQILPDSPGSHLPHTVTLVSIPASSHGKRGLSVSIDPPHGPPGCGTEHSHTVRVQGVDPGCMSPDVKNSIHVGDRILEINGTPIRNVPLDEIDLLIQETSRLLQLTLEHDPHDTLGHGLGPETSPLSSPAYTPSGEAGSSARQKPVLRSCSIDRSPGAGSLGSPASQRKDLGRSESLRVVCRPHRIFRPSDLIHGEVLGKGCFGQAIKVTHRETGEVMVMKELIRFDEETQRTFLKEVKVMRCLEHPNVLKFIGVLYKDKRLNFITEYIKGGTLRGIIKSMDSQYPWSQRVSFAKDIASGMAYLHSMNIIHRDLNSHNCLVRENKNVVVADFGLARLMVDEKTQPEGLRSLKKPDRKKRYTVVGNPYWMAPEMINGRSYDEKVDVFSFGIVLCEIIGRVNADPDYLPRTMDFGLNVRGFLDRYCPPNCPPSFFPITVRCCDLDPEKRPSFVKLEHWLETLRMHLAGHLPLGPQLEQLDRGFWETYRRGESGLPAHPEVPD
UniProt Q16644, whole entry, looked up: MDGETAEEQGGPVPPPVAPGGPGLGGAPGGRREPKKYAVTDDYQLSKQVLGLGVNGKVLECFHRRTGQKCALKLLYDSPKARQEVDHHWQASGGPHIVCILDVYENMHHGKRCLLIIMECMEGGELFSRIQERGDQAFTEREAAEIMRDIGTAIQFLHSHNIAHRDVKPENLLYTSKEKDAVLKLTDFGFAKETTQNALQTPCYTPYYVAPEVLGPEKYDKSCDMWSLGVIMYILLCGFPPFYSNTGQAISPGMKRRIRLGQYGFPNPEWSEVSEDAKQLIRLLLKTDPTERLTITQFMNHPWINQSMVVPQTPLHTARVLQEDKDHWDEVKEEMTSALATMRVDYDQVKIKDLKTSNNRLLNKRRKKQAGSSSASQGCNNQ
UniProt Q5VT25: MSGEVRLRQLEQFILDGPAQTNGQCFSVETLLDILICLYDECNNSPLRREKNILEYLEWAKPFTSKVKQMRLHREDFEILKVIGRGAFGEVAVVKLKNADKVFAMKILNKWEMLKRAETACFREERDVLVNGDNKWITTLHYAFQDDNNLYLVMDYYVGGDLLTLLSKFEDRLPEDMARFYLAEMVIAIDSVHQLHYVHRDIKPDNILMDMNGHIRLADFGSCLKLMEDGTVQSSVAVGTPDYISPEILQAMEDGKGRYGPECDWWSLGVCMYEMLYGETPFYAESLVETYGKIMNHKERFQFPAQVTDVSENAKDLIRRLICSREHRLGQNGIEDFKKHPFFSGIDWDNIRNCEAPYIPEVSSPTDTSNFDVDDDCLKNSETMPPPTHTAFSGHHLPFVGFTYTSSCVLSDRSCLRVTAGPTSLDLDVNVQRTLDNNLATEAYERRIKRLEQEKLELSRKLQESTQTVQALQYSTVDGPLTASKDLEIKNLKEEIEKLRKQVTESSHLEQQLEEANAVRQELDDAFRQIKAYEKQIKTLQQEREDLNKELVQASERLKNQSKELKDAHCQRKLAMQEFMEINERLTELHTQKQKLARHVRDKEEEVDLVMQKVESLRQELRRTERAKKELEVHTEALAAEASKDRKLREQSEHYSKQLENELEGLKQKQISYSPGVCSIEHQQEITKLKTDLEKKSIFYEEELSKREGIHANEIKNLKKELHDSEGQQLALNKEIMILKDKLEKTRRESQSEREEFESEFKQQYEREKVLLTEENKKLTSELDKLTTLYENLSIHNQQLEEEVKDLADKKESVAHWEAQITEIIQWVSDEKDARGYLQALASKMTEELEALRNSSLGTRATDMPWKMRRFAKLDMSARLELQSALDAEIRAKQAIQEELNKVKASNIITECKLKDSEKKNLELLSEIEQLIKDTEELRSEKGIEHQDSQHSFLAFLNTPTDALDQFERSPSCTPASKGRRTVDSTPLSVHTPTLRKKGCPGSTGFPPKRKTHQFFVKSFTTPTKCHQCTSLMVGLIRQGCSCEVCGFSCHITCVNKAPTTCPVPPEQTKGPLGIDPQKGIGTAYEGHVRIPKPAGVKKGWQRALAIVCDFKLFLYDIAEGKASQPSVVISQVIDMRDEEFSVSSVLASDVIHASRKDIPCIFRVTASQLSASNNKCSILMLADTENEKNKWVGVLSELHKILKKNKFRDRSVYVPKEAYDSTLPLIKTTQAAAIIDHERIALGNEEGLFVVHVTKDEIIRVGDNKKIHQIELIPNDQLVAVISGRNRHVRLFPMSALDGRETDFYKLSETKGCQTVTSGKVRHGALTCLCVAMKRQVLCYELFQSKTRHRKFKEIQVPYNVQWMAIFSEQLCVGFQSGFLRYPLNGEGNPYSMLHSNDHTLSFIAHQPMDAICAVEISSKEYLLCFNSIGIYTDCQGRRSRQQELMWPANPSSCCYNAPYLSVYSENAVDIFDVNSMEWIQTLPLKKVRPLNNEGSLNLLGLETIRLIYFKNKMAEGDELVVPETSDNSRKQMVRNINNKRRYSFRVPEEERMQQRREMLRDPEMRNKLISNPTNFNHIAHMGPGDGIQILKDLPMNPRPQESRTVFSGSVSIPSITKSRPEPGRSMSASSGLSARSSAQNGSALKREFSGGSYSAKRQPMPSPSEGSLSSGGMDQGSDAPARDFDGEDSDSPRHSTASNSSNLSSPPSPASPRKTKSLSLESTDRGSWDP
UniProt Q9Y5S2: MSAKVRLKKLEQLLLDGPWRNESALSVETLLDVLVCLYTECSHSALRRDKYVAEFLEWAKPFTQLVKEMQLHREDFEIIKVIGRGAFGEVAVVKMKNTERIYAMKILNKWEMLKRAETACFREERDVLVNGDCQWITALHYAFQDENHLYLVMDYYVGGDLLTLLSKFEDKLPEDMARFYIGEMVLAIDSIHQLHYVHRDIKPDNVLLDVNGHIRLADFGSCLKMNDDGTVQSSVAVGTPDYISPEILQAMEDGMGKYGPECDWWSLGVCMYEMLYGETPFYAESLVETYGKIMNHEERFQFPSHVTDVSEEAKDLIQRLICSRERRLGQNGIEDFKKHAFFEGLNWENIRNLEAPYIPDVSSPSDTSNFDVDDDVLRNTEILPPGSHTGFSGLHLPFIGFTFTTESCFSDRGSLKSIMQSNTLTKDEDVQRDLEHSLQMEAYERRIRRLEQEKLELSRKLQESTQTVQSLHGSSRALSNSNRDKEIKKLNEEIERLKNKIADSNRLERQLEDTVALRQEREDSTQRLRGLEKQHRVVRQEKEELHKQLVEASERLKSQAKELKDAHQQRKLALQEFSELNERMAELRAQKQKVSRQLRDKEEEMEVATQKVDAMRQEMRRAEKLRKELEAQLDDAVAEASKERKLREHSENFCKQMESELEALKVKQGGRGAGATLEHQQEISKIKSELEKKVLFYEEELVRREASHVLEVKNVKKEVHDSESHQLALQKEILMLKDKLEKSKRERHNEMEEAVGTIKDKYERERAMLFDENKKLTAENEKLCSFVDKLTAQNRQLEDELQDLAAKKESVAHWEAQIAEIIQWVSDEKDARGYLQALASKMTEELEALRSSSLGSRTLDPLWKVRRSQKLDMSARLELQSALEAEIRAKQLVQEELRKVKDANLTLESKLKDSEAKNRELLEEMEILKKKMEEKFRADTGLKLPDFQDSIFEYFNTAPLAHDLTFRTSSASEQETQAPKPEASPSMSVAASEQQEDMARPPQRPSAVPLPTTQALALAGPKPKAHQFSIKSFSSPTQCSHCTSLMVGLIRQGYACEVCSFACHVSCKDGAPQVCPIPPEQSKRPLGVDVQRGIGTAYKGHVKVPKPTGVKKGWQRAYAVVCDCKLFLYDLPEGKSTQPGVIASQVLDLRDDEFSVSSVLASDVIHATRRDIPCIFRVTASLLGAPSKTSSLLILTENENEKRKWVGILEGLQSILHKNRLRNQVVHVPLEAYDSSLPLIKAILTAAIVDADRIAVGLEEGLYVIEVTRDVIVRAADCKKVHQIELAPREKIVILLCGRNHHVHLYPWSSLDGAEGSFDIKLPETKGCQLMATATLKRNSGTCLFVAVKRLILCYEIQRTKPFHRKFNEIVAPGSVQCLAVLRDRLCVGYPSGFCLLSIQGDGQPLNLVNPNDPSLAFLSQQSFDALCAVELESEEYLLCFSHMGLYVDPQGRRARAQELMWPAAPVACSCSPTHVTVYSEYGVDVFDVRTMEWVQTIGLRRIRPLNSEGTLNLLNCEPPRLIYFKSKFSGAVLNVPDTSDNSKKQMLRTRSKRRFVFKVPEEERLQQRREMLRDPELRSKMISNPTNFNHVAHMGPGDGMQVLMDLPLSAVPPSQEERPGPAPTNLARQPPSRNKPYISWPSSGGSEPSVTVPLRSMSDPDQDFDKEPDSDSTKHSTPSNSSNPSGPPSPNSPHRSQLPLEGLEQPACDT
UniProt O75676: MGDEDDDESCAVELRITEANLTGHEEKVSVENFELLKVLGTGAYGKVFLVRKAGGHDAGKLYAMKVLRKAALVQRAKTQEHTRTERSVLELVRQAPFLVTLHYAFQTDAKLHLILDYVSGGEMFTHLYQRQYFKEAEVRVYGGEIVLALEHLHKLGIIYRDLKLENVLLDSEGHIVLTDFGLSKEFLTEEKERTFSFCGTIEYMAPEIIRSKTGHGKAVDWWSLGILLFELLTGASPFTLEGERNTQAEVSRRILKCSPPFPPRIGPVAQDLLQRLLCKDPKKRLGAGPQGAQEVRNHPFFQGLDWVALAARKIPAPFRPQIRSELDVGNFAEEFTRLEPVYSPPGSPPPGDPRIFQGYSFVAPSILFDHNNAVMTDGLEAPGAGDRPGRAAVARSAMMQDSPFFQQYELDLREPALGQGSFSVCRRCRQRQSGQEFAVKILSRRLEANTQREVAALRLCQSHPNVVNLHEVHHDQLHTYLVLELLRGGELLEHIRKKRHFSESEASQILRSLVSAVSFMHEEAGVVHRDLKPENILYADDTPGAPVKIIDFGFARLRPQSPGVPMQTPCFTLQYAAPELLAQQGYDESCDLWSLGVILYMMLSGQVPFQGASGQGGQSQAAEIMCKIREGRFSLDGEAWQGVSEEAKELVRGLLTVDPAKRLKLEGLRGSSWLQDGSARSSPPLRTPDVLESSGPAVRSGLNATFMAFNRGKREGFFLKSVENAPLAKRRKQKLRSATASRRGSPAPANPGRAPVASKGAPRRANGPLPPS
UniProt Q9UPE1, whole entry: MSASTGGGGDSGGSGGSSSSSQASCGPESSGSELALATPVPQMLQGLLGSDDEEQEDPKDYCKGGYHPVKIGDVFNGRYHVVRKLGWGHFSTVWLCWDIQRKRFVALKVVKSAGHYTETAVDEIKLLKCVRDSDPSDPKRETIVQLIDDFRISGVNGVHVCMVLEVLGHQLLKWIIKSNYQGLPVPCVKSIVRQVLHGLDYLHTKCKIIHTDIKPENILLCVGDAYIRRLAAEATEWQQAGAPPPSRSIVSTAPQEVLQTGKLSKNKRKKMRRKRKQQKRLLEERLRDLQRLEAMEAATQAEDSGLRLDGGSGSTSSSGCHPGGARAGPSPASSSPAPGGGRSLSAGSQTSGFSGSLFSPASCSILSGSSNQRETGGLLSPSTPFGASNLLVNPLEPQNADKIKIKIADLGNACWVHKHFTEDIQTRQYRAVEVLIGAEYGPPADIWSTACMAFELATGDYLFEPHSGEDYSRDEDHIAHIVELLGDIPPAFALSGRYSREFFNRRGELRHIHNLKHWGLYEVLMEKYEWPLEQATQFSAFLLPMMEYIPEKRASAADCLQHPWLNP

[2] = biological target: T2, TGF-beta receptor type-1 (Homo sapiens) (UniProt P36897); conditions: at 1 µM
T2 sequence (whole entry): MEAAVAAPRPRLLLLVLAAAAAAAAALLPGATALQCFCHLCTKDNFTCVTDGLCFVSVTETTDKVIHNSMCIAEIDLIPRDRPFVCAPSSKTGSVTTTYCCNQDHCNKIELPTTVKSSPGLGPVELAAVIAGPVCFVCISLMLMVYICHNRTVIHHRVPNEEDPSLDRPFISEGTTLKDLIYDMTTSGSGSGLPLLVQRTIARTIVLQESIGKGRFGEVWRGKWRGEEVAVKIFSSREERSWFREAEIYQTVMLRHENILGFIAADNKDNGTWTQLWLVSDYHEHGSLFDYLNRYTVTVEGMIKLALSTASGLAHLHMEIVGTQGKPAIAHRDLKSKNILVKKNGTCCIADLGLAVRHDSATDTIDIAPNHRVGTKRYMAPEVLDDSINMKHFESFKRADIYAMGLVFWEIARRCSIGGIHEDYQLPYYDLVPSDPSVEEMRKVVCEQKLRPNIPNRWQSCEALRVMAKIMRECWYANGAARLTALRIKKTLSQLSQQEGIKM

[3] = biological target: Insulin-like growth factor 1 receptor (Homo sapiens) (UniProt P08069); conditions: at 1 µM
[4] = biological target: Inhibitor of nuclear factor kappa-B kinase subunit alpha (Homo sapiens) (UniProt O15111); conditions: at 10 µM
[5] = biological target: Inhibitor of nuclear factor kappa-B kinase subunit beta (Homo sapiens) (UniProt O14920); conditions: at 1 µM
[6] = biological target: Insulin receptor-related protein (Homo sapiens) (UniProt P14616); conditions: at 1 µM
[7] = biological target: Tyrosine-protein kinase JAK2 (Homo sapiens) (UniProt O60674); conditions: at 1 µM
[8] = biological target: Tyrosine-protein kinase JAK2 (Homo sapiens) (UniProt O60674); conditions: at 10 µM
[9] = biological target: Tyrosine-protein kinase JAK3 (Homo sapiens) (UniProt P52333); conditions: at 1 µM
[10] = biological target: Mitogen-activated protein kinase 8 (Homo sapiens) (UniProt P45983); conditions: at 10 µM
[11] = biological target: LIM domain kinase 1 (Homo sapiens) (UniProt P53667); conditions: at 1 µM
[12] = biological target: Tyrosine-protein kinase Lck (Homo sapiens) (UniProt P06239); conditions: at 10 µM
[13] = biological target: Tyrosine-protein kinase Lck (Homo sapiens) (UniProt P06239); conditions: at 1 µM
[14] = biological target: Mitogen-activated protein kinase 3 (Homo sapiens) (UniProt P27361); conditions: at 1 µM
[15] = biological target: Mitogen-activated protein kinase 3 (Homo sapiens) (UniProt P27361); conditions: at 10 µM
[16] = biological target: Mitogen-activated protein kinase 1 (Homo sapiens) (UniProt P28482); conditions: at 1 µM
[17] = biological target: Mitogen-activated protein kinase 1 (Homo sapiens) (UniProt P28482); conditions: at 10 µM
[18] = biological target: MAP kinase-activated protein kinase 3 (Homo sapiens) (UniProt Q16644); conditions: at 1 µM
[19] = biological target: Dual specificity mitogen-activated protein kinase kinase 1 (Homo sapiens) (UniProt Q02750); conditions: at 10 µM
[20] = biological target: Misshapen-like kinase 1 (Homo sapiens) (UniProt Q8N4C8); conditions: at 1 µM
[21] = biological target: Serine/threonine-protein kinase MRCK alpha (Homo sapiens) (UniProt Q5VT25); conditions: at 1 µM
[22] = biological target: Serine/threonine-protein kinase MRCK alpha (Homo sapiens) (UniProt Q5VT25); conditions: at 10 µM
[23] = biological target: Serine/threonine-protein kinase MRCK beta (Homo sapiens) (UniProt Q9Y5S2); conditions: at 1 µM
[24] = biological target: Serine/threonine-protein kinase MRCK beta (Homo sapiens) (UniProt Q9Y5S2); conditions: at 10 µM
[25] = biological target: Ribosomal protein S6 kinase alpha-5 (Homo sapiens) (UniProt O75582); conditions: at 1 µM
[26] = biological target: Ribosomal protein S6 kinase alpha-5 (Homo sapiens) (UniProt O75582); conditions: at 10 µM
[27] = biological target: Ribosomal protein S6 kinase alpha-4 (Homo sapiens) (UniProt O75676); conditions: at 1 µM
[28] = biological target: SRSF protein kinase 3 (Homo sapiens) (UniProt Q9UPE1); conditions: at 1 µM
[29] = biological target: SRSF protein kinase 3 (Homo sapiens) (UniProt Q9UPE1); conditions: at 10 µM
[30] = biological target: Hepatocyte growth factor receptor (Homo sapiens) (UniProt P08581); conditions: at 1 µM

**Q.** For `O=C1NC(=O)C(c2cn(CCCO)c3ncccc23)=C1c1cnccn1`, which residual activity [1] is on record?
**A.** Its residual activity is 101%.

**Q.** And the residual activity [2]?
**A.** Its residual activity is 103%.

**Q.** And the residual activity [3]?
**A.** The residual activity was 108%.

**Q.** What about the residual activity [4] of the same molecule?
**A.** Its residual activity is 101%.

**Q.** What about the residual activity [5] of the same molecule?
**A.** The residual activity was 102%.

**Q.** And the residual activity [6]?
**A.** Its residual activity is 107%.

**Q.** What about the residual activity [7] of the same molecule?
**A.** Its residual activity is 101%.

**Q.** And the residual activity [8]?
**A.** Its residual activity is 95%.

**Q.** And the residual activity [9]?
**A.** Its residual activity is 101%.

**Q.** And the residual activity [10]?
**A.** The residual activity was 107%.

**Q.** And the residual activity [11]?
**A.** Its residual activity is 97%.

**Q.** What about the residual activity [12] of the same molecule?
**A.** Its residual activity is 104%.

**Q.** What about the residual activity [13] of the same molecule?
**A.** Its residual activity is 97%.

**Q.** What about the residual activity [14] of the same molecule?
**A.** Its residual activity is 95%.

**Q.** And the residual activity [15]?
**A.** The residual activity was 101%.

**Q.** What about the residual activity [16] of the same molecule?
**A.** The residual activity was 105%.

**Q.** What about the residual activity [17] of the same molecule?
**A.** Its residual activity is 101%.

**Q.** What about the residual activity [18] of the same molecule?
**A.** Its residual activity is 114%.

**Q.** What about the residual activity [19] of the same molecule?
**A.** The residual activity was 109%.

**Q.** And the residual activity [20]?
**A.** Its residual activity is 104%.

**Q.** And the residual activity [21]?
**A.** Its residual activity is 110%.

**Q.** What about the residual activity [22] of the same molecule?
**A.** The residual activity was 102%.

**Q.** What about the residual activity [23] of the same molecule?
**A.** Its residual activity is 102%.

**Q.** What about the residual activity [24] of the same molecule?
**A.** Its residual activity is 99%.

**Q.** What about the residual activity [25] of the same molecule?
**A.** The residual activity was 106%.

**Q.** What about the residual activity [26] of the same molecule?
**A.** The residual activity was 110%.

**Q.** What about the residual activity [27] of the same molecule?
**A.** The residual activity was 109%.

**Q.** What about the residual activity [28] of the same molecule?
**A.** Its residual activity is 108%.

**Q.** And the residual activity [29]?
**A.** Its residual activity is 102%.

**Q.** And the residual activity [30]?
**A.** Its residual activity is 105%.

From ChEMBL document CHEMBL2218924, “A broad activity screen in support of a chemogenomic map for kinase signalling research and drug discovery” (Biochem J, 2013)
